For one assay, the system named is rat osteoblast cells. Kind of assay: Standard wounding / scratch migration assay. In kind it is cell-based. The method, then:
FIG. 10 Periostin promotes osteoblast cell migration. […] Tissue culture dishes were coated with either collagen, or collagen with titrating amounts of periostin. Cells were plated and allowed to adhere for 24 hours. A standard “wounding” or “scratch assay” was performed and measurements of cell migration into the scratch area were obtained.
The ability of periostin to promote migration of osteoblast cells in culture was ascertained utilizing a standard “wounding” assay. For this, a monolayer of rat osteoblast cells was plated on either plastic, collagen or collagen plus titrating amounts of periostin. A small scratch was made (with a P200 tip) through the middle of the monolayer and the cells were allowed to migrate into the “wounded” area for up to 48 hours.

For another assay, the system named is primary fibroblasts. The experiment in a line: 3D collagen gel migration assay with hanging drop aggregates. The format is cell-based. To be noted: aggregates of 50,000 cells/20 μl on collagen I hydrogels (1.5 mg/ml), exogenous factors. The method, then: FIG. 11 Periostin promotes migration of primary fibroblasts in 3D collagen gel assays. Hanging drop aggregates (50,000 cells/20 μl) were placed on top of collagen I hydrogels (1.5 mg/ml) and assayed for their ability to respond to exogenous factors (TGFβ3, BMP2, and periostin). […] Pictures above the graph lines show representative images of the stimulated cultures with the cell migratory boundaries outlined.
The 3-D migration and invasion assay will use the same cells but aggregate them using a hanging drop method overnight. […] The number of cells that have migrated out from the aggregate and the distance migrated on the top of the gel are the first order parameters of migration.

B1: BMP-2: bone morphogenic protein, member of the TGF-β superfamily of polypeptides (protein, UniProt P12643 283-396, looked up)
Bone morphogenetic protein 2: QAKHKQRKRLKSSCKRHPLYVDFSDVGWNDWIVAPPGYHAFYCHGECPFPLADHLNSTNHAIVQTLVNSVNSKIPKACCVPTELSAISMLYLDENEKVVLKNYQDMVVEGCGCR
Consider B1, for which the “cell migration into the scratch area” value in the assay with rat osteoblast cells (dishes coated with plastic, collagen, or collagen plus titrating amounts of periostin, BMP-2 titrated, up to 48 hours) is reported as “decrease in migration compared to periostin”. Moreover, the proliferation result in the assay on rat osteoblast cells (scratch assays in the presence of titrating amounts of BMP-2) is “significant increase”. In addition, the “fold-change in area of migration” value in the assay on primary fibroblasts is listed as “promoted migration”.

The record behind these values is patent US20110033516A1, “METHODS AND COMPOSITIONS FOR BONE HEALING BY PERIOSTIN” (Medical University of South Carolina, priority 2009, published 2011).
